# Reference: PubChem BioAssay (Tox21)
# Only a part is listed here, and it is no random draw. Records with an inconclusive call do not appear. Active and inactive are the calls of the source. Calls come from the whole dose curve.
# Assay: Nuclear factor erythroid 2-related factor 2/antioxidant responsive element (Nrf2/ARE) small molecule agonists: luciferase reporter gene qHTS assay in human keratinocytes (AID 1919969); note: nearly all actives have a fitted effect of over 35% in size
# Conditions: KeratinoSens HaCaT ARE-luciferase, luminescence, 24 h; series mostly up to 92.4 µM; activity, positive = activation: at the top concentration
# Source text: National Center for Advancing Translational Sciences [NCATS]
# Division of Preclinical Innovation [DPI]
# U.S. Environmental Protection Agency [EPA]
# National Institutes of Environmental Health Sciences [NIEHS]
# National Toxicology Program [NTP]
# U.S. Food and Drug Administration [FDA]
# Oxidative stress has been implicated in the pathogenesis of a variety of diseases ranging from cancer to neurodegeneration. The antioxidant response element (ARE) signaling pathway plays an important role in the amelioration of oxidative stress. The KeratinoSens (Givaudan, Switzerland) is an in vitro test method which quantifies luciferase induction as a measure of activation of Keap1-Nrf2-antioxidationt/electrophile response element (ARE) dependant pathway in HaCaT human keratinocytes stably transfected with a selectable plasmid. The KeratinoSens assay is a cell-based assay with a reporter cell line to detect potential skin sensitizers by their ability to induce the Nrf2/ARE-response. The activation of the report gene under culture conditions can be detected by ONE-Glo Luciferase Assay System (Promega, Madison, WI). This cell line has been used to screen the Tox21 10K compound library to identify agonists that induce oxidative stress. The cytotoxicity of the Tox21 compound library against the KS-ARE cell line was tested in parallel by measuring the cell viability using CellTiter- Fluor assay system (Promega, Madison, WI) in the same wells.
# HaCaT derived cell line KeratinoSens were dispensed at 1,500 cells/5uL/well in 1536-well white wall/solid bottom plates using a Multidrop Combi (ThermoFisher Scientific, Waltham, MA) dispenser. After the assay plates were incubated at 37 C/5% CO2 for 5 h, 23 nL of compounds dissolved in DMSO, positive controls or DMSO only was transferred to the assay plate by a pintool workstation (Kalypsys, San Diego, CA). The plates were incubated at 37 C/5% CO2 for 23 h, followed by addition of 1uL/well of CellTiter-Fluor reagent into the assay plates using a Flying Reagent Dispenser (Aurora Discovery, San Diego, CA) for cell viability readout that measures cytotoxicity. After 1 h incubation at 37 C/5% CO2 the fluorescence intensity was measured using a ViewLux (PerkinElmer, Shelton, CT) plate reader. Then 4uL/well of One-Glo were added using a Flying Reagent Dispenser. After the plates were incubated at room temperature for 30 min, the luminescence intensity in the assay plates was measured using ViewLux plate reader.
# % is set by controls: 0 for no effect and ±100 for the full control effect; potency is the fitted concentration of half-maximal effect.
Structure (SMILES),"activity, positive = activation",Potency
Nc1cc([N+](=O)[O-])cc([N+](=O)[O-])c1O,inactive: 5.69%,–
CCOP(=O)(CC)OCC,inactive: 1.51%,–
COc1ccc([N+](=O)[O-])cc1[N+](=O)[O-],inactive: 0.718%,–
Cc1c([N+](=O)[O-])cccc1[N+](=O)[O-],–,inactive
O=[N+]([O-])OCC(CO[N+](=O)[O-])(CO[N+](=O)[O-])CO[N+](=O)[O-],inactive: 6.1%,–
Cc1ccc([N+](=O)[O-])cc1[N+](=O)[O-],–,inactive
CC(C)N(CCO)C(C)C,inactive: -8.45%,–
Cc1cccc([N+](=O)[O-])c1[N+](=O)[O-],–,active: 8.15 µM
CCN(CC)CCCl,–,active: 55.3 µM
OCCSCCO,–,inactive
CP(=O)(O)OCCC[Si](O)(O)O,inactive: -8.43%,–
COP(C)(=O)OC,–,inactive
N=C(N)N[N+](=O)[O-],inactive: -0.199%,–
[NH4+].[O-][Cl+3]([O-])([O-])[O-],–,inactive
CCOP(=O)(CC)Oc1ccc([N+](=O)[O-])cc1 (centres undefined),inactive: 0.727% [at 42.5 µM],–
O=[N+]([O-])c1cccc([N+](=O)[O-])c1,inactive: 10.2%,–
N#CBr,inactive: 0.207%,–
C/C1=C2N=C(/C=C3N=C(/C(C)=C4\[N-][C@@](C)([C@@H]5N=C1[C@](C)(CCC(=O)NC[C@@H](C)OP(=O)([O-])O[C@H]1[C@@H](O)[C@@H](n6cnc7cc(C)c(C)cc76)O[C@@H]1CO)[C@H]5CC(N)=O)[C@@](C)(CC(N)=O)[C@@H]4CCC(N)=O)[C@@](C)(CC(N)=O)[C@@H]\3CCC(N)=O)C(C)(C)[C@@H]/2CCC(N)=O.[C-]#N.[Co+3],inactive: -8.51% [at 42.5 µM],–
O=[N+]([O-])[O-].[NH4+],–,inactive
